This note sets out measurements from patent publication US10189836B2, “Therapeutic compounds, compositions and methods of use thereof” (Genentech, Inc., priority 2015, dated 2019).

The experiment deals with JAK1-dependent STAT6 phosphorylation downstream of IL-13 stimulation in BEAS-2B cells.
By IC50 is commonly meant the concentration that gives 50% inhibition. Low values mean greater potency in that assay, high ones weaker potency in that assay. Consider `CN1CCN(C(=O)Cn2cc(Nc3nc4c(N5CC6CCC(C5)N6C(=O)C5(C(F)(F)F)CC5)cccn4n3)cn2)CC1` [Example 38, 1-(4-methylpiperazin-1-yl)-2-[4-[[8-[8-[1-(trifluoromethyl)cyclopropanecarbonyl]-3,8-diazabicyclo[3.2.1]octan-3-yl]-[1,2,4]triazolo[1,5-a]pyridin-2-yl]amino]pyrazol-1-yl]ethanone], for which the IC50 amounted to 52.5 nM.
`O=C(Cn1cc(Nc2nc3c(N4CC5CCC(C4)N5C(=O)N4CC(C(F)(F)F)C4)cccn3n2)cn1)N1CCN(C2CCOCC2)CC1` [Example 39, 1-(4-tetrahydropyran-4-ylpiperazin-1-yl)-2-[4-[[8-[8-[3-(trifluoromethyl)azetidine-1-carbonyl]-3,8-diazabicyclo[3.2.1]octan-3-yl]-[1,2,4]triazolo[1,5-a]pyridin-2-yl]amino]pyrazol-1-yl]ethanone] registered an IC50 of 81.5 nM.
Regarding `CN1CCN(C(=O)Cn2cc(Nc3nc4c(N5CC6CCCC(C5)N6C(=O)[C@H]5C[C@H](C(F)(F)F)C5)cccn4n3)cn2)CC1` [Example 40, 1-(4-methylpiperazin-1-yl)-2-[4-[[8-[9-[3-(trifluoromethyl)cyclobutanecarbonyl]-3,9-diazabicyclo[3.3.1]nonan-3-yl]-[1,2,4]triazolo[1,5-a]pyridin-2-yl]amino]pyrazol-1-yl]ethanone], the IC50 was determined as 21.4 nM.
The compound `O=C(Cn1cc(Nc2nc3c(N4CC5CCC(C4)N5C(=O)CCC(F)(F)F)cccn3n2)cn1)N1CCC(CN2CCOCC2)CC1` [Example 41, 4,4,4-trifluoro-1-[3-[2-[[1-[2[4-(morpholinomethyl)-1-piperidyl]-2-oxo-ethyl]pyrazol-4-yl]amino]-[1,2,4]triazolo[1,5-a]pyridin-8-yl]-3,8-diazabicyclo[3.2.1]octan-8-yl]butan-1-one] yielded an IC50 of 51.4 nM.
In turn, `CN1CCN(C(=O)Cn2cc(Nc3nc4c(N5CC6CCC(C5)N6C(=O)Cc5ccncc5)cccn4n3)cn2)CC1` [Example 42, 1-[3-[2-[[1-[2-(4-methylpiperazin-1-yl)-2-oxo-ethyl]pyrazol-4-yl]amino]-[1,2,4]triazolo[1,5-a]pyridin-8-yl]-3,8-diazabicyclo[3.2.1]octan-pyridyl)ethanone] showed an IC50 of 232 nM.
In the case of `CN1CCN(C(=O)Cn2cc(Nc3nc4c(N5CC6CCC(C5)C6C(=O)N5CC(C(F)(F)F)C5)cccn4n3)cn2)CC1` (centres unmarked) [Example 43, 1-(4-methylpiperazin-1-yl)-2-(4-[[8-(8-[[3-(trifluoromethyl)azetidin-1-yl]carbonyl]-3-azabicyclo[3.2.1]octan-3-yl)-[1,2,4]triazolo[1,5-a]pyridin-2-yl]amino]-1H-pyrazol-1-yl)ethan-1-one], the half-inhibitory concentration (IC50) stood at 58.1 nM.
The compound `O=C(Cn1cc(Nc2nc3c(N4CC5CCC(C4)N5C(=O)N4CC(C(F)(F)F)C4)cccn3n2)cn1)N1CCC(N2CCOCC2)CC1` [Example 44, 1-(4-morpholino-1-piperidyl)-2-[4-[[8-[8-[3-(trifluoromethyl)azetidine-1-carbonyl]-3,8-diazabicyclo[3.2.1]octan-3-yl]-[1,2,4]triazolo[1,5-a]pyridin-2-yl]amino]pyrazol-1-yl]ethanone] returned an IC50 of 57.5 nM.
Regarding `CN1CCN(C(=O)Cn2cc(Nc3nc4c(N5CC6CCC(C5)N6C(=O)COCC(F)(F)F)cccn4n3)cn2)CC1` [Example 45, 1-(4-methylpiperazin-1-yl)-2-[4-[[8-[8-[2-(2,2,2-trifluoroethoxy)acetyl]-3,8-diazabicyclo[3.2.1]octan-3-yl]-[1,2,4]triazolo[1,5-a]pyridin-2-yl]amino]pyrazol-1-yl]ethanone], 67.1 nM corresponded to half-maximal inhibition (IC50).
In turn, `CN1CCN(C(=O)Cn2cc(Nc3nc4c(N5CC6CCC(C5)N6C(=O)C5CC(F)(F)C5)cccn4n3)cn2)CC1` [Example 46, 2-[4-[[8-[8-(3,3-difluorocyclobutanecarbonyl)-3-yl]-3,8-diazabicyclo[3.2.1]octan-[1,2,4]triazolo[1,5-a]pyridin-2-yl]amino]pyrazol-1-yl]-1-(4-methylpiperazin-1-yl)ethanone] showed an IC50 of 73.8 nM.
`CC(CC(F)(F)F)C(=O)N1C2CCC1CN(c1cccn3nc(Nc4cnn(CC(=O)N5CCN(C)CC5)c4)nc13)C2` (centres unmarked) [Example 47, 4,4,4-trifluoro-2-methyl-1-[3-[2-[[1-[2-(4-methylpiperazin-1-yl)-2-oxo-ethyl]pyrazol-4-yl]amino]-[1,2,4]triazolo[1,5-a]pyridin-8-yl]-3,8-diazabicyclo[3.2.1]octan-8-yl]butan-1-one] showed an IC50 of 68 nM.
In the case of `CN1CCN(C(=O)Cn2cc(Nc3nc4c(N5CC6CCC(C5)N6C(=O)C5C6CC(F)(F)CC65)cccn4n3)cn2)CC1` (centres unmarked) [Example 49, 2-[4-[[8-[8-(3,3-difluorobicyclo[3.1.0]hexane-6-carbonyl)-3,8-diazabicyclo[3.2.1]octan-3-yl]-[1,2,4]triazolo[1,5-a]pyridin-2-yl]amino]pyrazol-1-yl]-1-(4-methylpiperazin-1-yl)ethanone], the midpoint of inhibition, the IC50, lay at 57.9 nM.
On to `CN1CCN(C(=O)Cn2cc(Nc3nc4c(N5CC6CCC(C5)N6C(=O)C5CCSC5)cccn4n3)cn2)CC1` (centres unmarked) [Example 50, 1-(4-methylpiperazin-1-yl)-2-[4-[[8-[8-(tetrahydrothiophene-3-carbonyl)-3,8-diazabicyclo[3.2.1]octan-3-yl]-[1,2,4]triazolo[1,5-a]pyridin-2-yl]amino]pyrazol-1-yl]ethanone], for which the IC50 was determined as 34.7 nM.
`CN1CCN(C(=O)Cn2cc(Nc3nc4c(N5CC6CCC(C5)N6C(=O)C5CCC(F)(F)CC5)cccn4n3)cn2)CC1` [Example 51, 2-[4-[[8-[8-(4,4-difluorocyclohexanecarbonyl)-3,8-diazabicyclo[3.2.1]octan-3-yl]-[1,2,4]triazolo[1,5-a]pyridin-2-yl]amino]pyrazol-1-yl]-1-(4-methylpiperazin-1-yl)ethanone]: the IC50 amounted to 70.4 nM.
Regarding `CN1CCN(C(=O)Cn2cc(Nc3nc4c(N5CC6CCC(C5)N6C(=O)C5CCSCC5)cccn4n3)cn2)CC1` [Example 52, 1-(4-methylpiperazin-1-yl)-2-[4-[[8-[8-(tetrahydrothiopyran-4-carbonyl)-3,8-diazabicyclo[3.2.1]octan-3-yl]-[1,2,4]triazolo[1,5-a]pyridin-2-yl]amino]pyrazol-1-yl]ethanone], it took 223 nM to reach half-maximal inhibition (IC50).
Compound `CN1CCN(C(=O)Cn2cc(Nc3nc4c(N5CC6CCC(C5)N6C(=O)C5CC6CCC5O6)cccn4n3)cn2)CC1` (centres unmarked) [Example 53, 1-(4-methylpiperazin-1-yl)-2-[4-[[8-[8-(7-oxabicyclo[2.2.1]heptane-3-carbonyl)-3,8-diazabicyclo[3.2.1]octan-3-yl]-[1,2,4]triazolo[1,5-a]pyridin-2-yl]amino]pyrazol-1-yl]ethanone] gave a 50% inhibitory concentration (IC50) of 133 nM.
As to `CN1CCN(C(=O)Cn2cc(Nc3nc4c(N5CC6CCC(C5)N6C(=O)COC(F)(F)F)cccn4n3)cn2)CC1` [Example 54, 1-(4-methylpiperazin-1-yl)-2-[4-[[8-[8-[2-(trifluoromethoxy)acetyl]-3,8-diazabicyclo[3.2.1]octan-3-yl]-[1,2,4]triazolo[1,5-a]pyridin-2-yl]amino]pyrazol-1-yl]ethanone], the IC50 came out at 55.7 nM.
`CN1CCN(C(=O)Cn2cc(Nc3nc4c(N5CC6CCC(C5)N6Cc5cccc(C#N)c5)cccn4n3)cn2)CC1` [Example 55, 3-[[3-[2-[[1-[2-(4-methylpiperazin-1-yl)-2-oxo-ethyl]pyrazol-4-yl]amino]-[1,2,4]triazolo[1,5-a]pyridin-8-yl]-3,8-diazabicyclo[3.2.1]octan-8-yl]methyl]benzonitrile] had an IC50 of 30.2 nM.
Take `CN1CCN(C(=O)Cn2cc(Nc3nc4c(N5CC6CCC(C5)N6Cc5ccc(C#N)cc5)cccn4n3)cn2)CC1` [Example 56, 4-[[3-[2-[[1-[2-(4-methylpiperazin-1-yl)-2-oxo-ethyl]pyrazol-4-yl]amino]-[1,2,4]triazolo[1,5-a]pyridin-8-yl]-3,8-diazabicyclo[3.2.1]octan-8-yl]methyl]benzonitrile]: half-maximal inhibition (IC50) required 651 nM.
`CN1CCN(C(=O)Cn2cc(Nc3nc4c(N5CC6CCC(C5)N6C(=O)C5CC6C(C5)C6(F)F)cccn4n3)cn2)CC1` (centres unmarked) [Example 57, 2-[4-[[8-[8-(6,6-difluorobicyclo[3.1.0]hexane-3-carbonyl)-3,8-diazabicyclo[3.2.1]octan-3-yl]-[1,2,4]triazolo[1,5-a]pyridin-2-yl]amino]pyrazol-1-yl]-1-(4-methylpiperazin-1-yl)ethanone] registered an IC50 of 86.8 nM.
For `CN1CCN(C(=O)Cn2cc(Nc3nc4c(N5CC6CCC(C5)N6C(=O)C5CCC(F)(F)C5)cccn4n3)cn2)CC1` (centres unmarked) [Example 58, 2-[4-[[8-[8-(3,3-difluorocyclopentanecarbonyl)-3,8-diazabicyclo[3.2.1]octan-3-yl]-[1,2,4]triazolo[1,5-a]pyridin-2-yl]amino]pyrazol-1-yl]-1-(4-methylpiperazin-1-yl)ethanone], half-maximal inhibition (IC50) required 98 nM.
The compound `CCN1CCN(C(=O)Cn2cc(Nc3nc4c(N5CC6CCC(C5)N6C(=O)N5CC(C(F)(F)F)C5)cccn4n3)cn2)CC1` [Example 59, 1-(4-ethylpiperazin-1-yl)-2-[4-[[8-[8-[3-(trifluoromethyl)azetidine-1-carbonyl]-3,8-diazabicyclo[3.2.1]octan-3-yl]-[1,2,4]triazolo[1,5-a]pyridin-2-yl]amino]pyrazol-1-yl]ethanone] had an IC50 of 37.9 nM.
Regarding `CN1CCN(C(=O)Cn2cc(Nc3nc4c(N5CC6CCC(C5)N6S(=O)(=O)CCC(F)(F)F)cccn4n3)cn2)CC1` [Example 60, 1-(4-methylpiperazin-1-yl)-2-[4-[[8-[8-(3,3,3-trifluoropropylsulfonyl)-3,8-diazabicyclo[3.2.1]octan-3-yl]-[1,2,4]triazolo[1,5-a]pyridin-2-yl]amino]pyrazol-1-yl]ethanone], the IC50 came to 24.5 nM.
Compound `CN1CCN(C(=O)Cn2cc(Nc3nc4c(N5CC6CCC(C5)N6S(=O)(=O)c5ccccc5)cccn4n3)cn2)CC1` [Example 61, 2-[4-[[8-[8-(benzenesulfonyl)-3,8-diazabicyclo[3.2.1]octan-3-yl]-[1,2,4]triazolo[1,5-a]pyridin-2-yl]amino]pyrazol-1-yl]-1-(4-methylpiperazin-1-yl)ethanone] gave an IC50 of 14.8 nM.
